For series [1] the following is noted: heparinized rat plasma, 37° C., FIG. 2.
For series [2] the following is noted: ca. 1 mg/mL in wet acetonitrile, 26 days at room temperature, analytical HPLC.
For series [3] the following is noted: deionized water, ultrasonicated 15 minutes, filtered 0.45μ, filtrate lyophilized and weighed.

“2′-Succinamidyl-PEG2-amine-paclitaxel Acetate [Compound 4]”: in series [1], the “hydrolysis to free paclitaxel in plasma” value is on record as “most of the taxane prodrug rapidly hydrolyzes within two hours”. Further, the “conversion to paclitaxel (chemical hydrolysis)” value in series [2] is “smoothly converted quantitatively into paclitaxel”. The substance “2′-Succinamidyl-PEG2-amine-paclitaxel Trifluoroacetate [Compound 3]” had a water solubility in series [3] of 7400 µg/mL.

The values above are taken from patent publication US6541508B2, “Taxane prodrugs” (Nobex Corporation, priority 1999, dated 2003).
